# Reference: ChEMBL document CHEMBL2417429, “Direct and nitroxyl (HNO)-mediated reactions of acyloxy nitroso compounds with the thiol-containing proteins glyceraldehyde 3-phosphate dehydrogenase and alkyl hydroperoxide reductase subunit C” (J Med Chem, 2013)
# Amino acid sequences for entries named in this document (tags omitted). A change or cut given only in a name is not applied to a line headed by its entry.
# UniProt P46406: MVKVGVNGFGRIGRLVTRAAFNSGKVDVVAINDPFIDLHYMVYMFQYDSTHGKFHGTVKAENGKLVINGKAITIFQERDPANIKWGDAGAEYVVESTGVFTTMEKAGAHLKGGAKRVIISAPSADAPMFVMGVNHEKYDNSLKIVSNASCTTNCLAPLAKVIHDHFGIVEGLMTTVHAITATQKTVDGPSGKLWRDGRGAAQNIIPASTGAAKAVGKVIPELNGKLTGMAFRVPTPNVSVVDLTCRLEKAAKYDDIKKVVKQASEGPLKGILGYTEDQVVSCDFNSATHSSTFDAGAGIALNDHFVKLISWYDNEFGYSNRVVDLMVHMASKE
# Counter-ions that a name gives are not always drawn. Activity calls are given as the source filed them. The rule behind the calls is not given here.
# How the values were obtained:
# [1] = molecular target: Glyceraldehyde-3-phosphate dehydrogenase (Oryctolagus cuniculus) (UniProt P46406); assay: Binding affinity to rabbit muscle GAPDH peptide V232 to R245 assessed as formation of S-nitrosated peptide by LC-MS analysis
# [2] = molecular target: Glyceraldehyde-3-phosphate dehydrogenase (Oryctolagus cuniculus) (UniProt P46406); assay: Binding affinity to rabbit muscle GAPDH tryptic peptide I143 to K159 assessed as formation of disulfide bond by LC-MS analysis
# Method in brief: (§1)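 GAPDH from rabbit muscle, untreated or donor-treated, digested with trypsin (monomer:trypsin 20:1 w/w) in 50 mM Tris-HCl, 37 °C, 12−16 h; quenched by freezing. 10 μM digest in 1:1 2% formic acid/methanol run by LC-MS on a high-resolution Orbitrap in positive ion mode; tryptic peptides identified by m/z.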
# [3] = molecular target: Glyceraldehyde-3-phosphate dehydrogenase (Oryctolagus cuniculus) (UniProt P46406); assay: Inhibition of rabbit muscle GAPDH assessed as residual enzyme activity after 60 mins by spectrophotometry
# Method in brief: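 Rabbit muscle GAPDH incubated with donor (0.1, 0.5, 1, 5, 10, 100 μM) in 0.1 M sodium phosphate pH 7.4, 25 °C, 60 min. NAD+ and glyceraldehyde-3-phosphate then added in a sealed cuvette; NADH formation followed at 340 nm every minute for 30 min. Runs typically in triplicate, mean ± SE; IC50 from sigmoidal fit of percent-of-control activity.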
# [4] = molecular target: Glyceraldehyde-3-phosphate dehydrogenase (Oryctolagus cuniculus) (UniProt P46406); assay: Binding affinity to rabbit muscle GAPDH assessed as structural modifications at 5 mM after 60 mins by SDS-PAGE
# [5] = molecular target: Glyceraldehyde-3-phosphate dehydrogenase (Oryctolagus cuniculus) (UniProt P46406); assay: Binding affinity to rabbit muscle GAPDH peptide V232 to R245 assessed as formation of mixture of sulfinamide and sulfinic acid by LC-MS analysis; method in brief: as §1
# [6] = molecular target: Glyceraldehyde-3-phosphate dehydrogenase (Oryctolagus cuniculus) (UniProt P46406); assay: Binding affinity to rabbit muscle GAPDH assessed as structural modifications of Cys149, Cys153 and Cys244 at 5 mM after 60 mins by MALDI-TOF MS
Compound,Activity [1],Activity [2],inhibition [3],Activity [4],Activity [5],Activity [6]
N[C@@H](CCC(=O)N[C@@H](CSN=O)C(=O)NCC(=O)O)C(=O)O,Active,–,–,–,–,–
O=NC1(OC(=O)C(F)(F)F)CCCCC1 [1-NITROSOCYCLOHEXYL TRIFLUOROACETATE],–,Active,Dose-dependent effect,inactive,Active,Active
